Chains of the proteins cited; added tags and fusions are not shown.
UniProt P10415, whole entry: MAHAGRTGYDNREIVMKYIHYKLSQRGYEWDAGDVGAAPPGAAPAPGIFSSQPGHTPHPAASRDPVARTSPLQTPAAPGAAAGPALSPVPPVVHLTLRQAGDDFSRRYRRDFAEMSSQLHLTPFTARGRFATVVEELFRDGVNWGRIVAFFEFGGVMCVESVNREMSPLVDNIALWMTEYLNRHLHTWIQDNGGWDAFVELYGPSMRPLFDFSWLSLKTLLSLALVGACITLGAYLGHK

In ChEMBL document CHEMBL4342405, “Clinical candidates modulating protein-protein interactions: The fragment-based experience” (Eur J Med Chem, 2019):

Biological target: Apoptosis regulator Bcl-2 (Homo sapiens, UniProt P10415)
Experiment: Inhibition of BCL-2 (unknown origin) by fluorescence polarization assay

- Ki: < 0.01 nM
SMILES: CC1(C)CCC(c2ccc(Cl)cc2)=C(CN2CCN(c3ccc(C(=O)NS(=O)(=O)c4ccc(N[C@H](CCN5CCOCC5)CSc5ccccc5)c(S(=O)(=O)C(F)(F)F)c4)cc3)CC2)C1 [NAVITOCLAX]
